Experimental data: patent US20050137128 (published 2005)
Values joined by “and” are separate entries in the source; they are usually repeats but may differ in a detail not shown here. Equal values may be shown once.

B1: PPI-1125 (peptide)
chain 1: LVF
chain 2: LVF
modifications: all D-residues, H-lvf-NH-NH-fvl-H, hydrazide-linked dimer

Target: Aβ1-40 fibril (Homo sapiens)
Assay: other, fibril binding

Kd [nM]	Binder
2.5	LVFFL (all D-residues, N-methyl, p-fluoro-D-Phe at position 3, C-terminal amide) [PPI-1784]
2.8	LVFFL (all D-residues, p-fluoro-D-Phe at position 3, C-terminal amide) [PPI-1785]
3.6	LVFFL (all D-residues, C-terminal NH-CH2CH2-NH2) [PPI-1465]

Target: Aβ1-40 fibril (Homo sapiens)
Assay: other, fibril binding
Remark: another data set of the same source

Kd	Binder
11.2 nM	LVFFL (all D-residues, free acid) [PPI-1261]
0.601 nM	LFFVL (all D-residues, N-methyl, C-terminal amide) [PPI-1020]
0.247 nM	GLVFFL (D-residues (Gly achiral), C-terminal amide) [PPI-1013]
3.7 nM	LFFVL (all D-residues, C-terminal isopropylamide) [PPI-1094]
0.701 nM	GLFVL (D-residues (Gly achiral), N-ethyl, C-terminal amide; sequence as printed) [PPI-1018]
0.57 nM	LFFVL (all D-residues, 1-piperidine-acetyl, C-terminal amide) [PPI-1089]
1.02 nM	LVFFL (all D-residues, C-terminal isopropylamide) [PPI-1093]
0.15 nM	LVFFL (all D-residues, N-ethyl, C-terminal amide) [PPI-1022]
0.604 nM	LVFFL (all D-residues, C-terminal methylamide) [PPI-1179]
0.408 nM	IIFFI (all D-residues, C-terminal amide) [PPI-1040]
1.75 nM	LFFVL (all D-residues, N,N-dimethyl, C-terminal amide) [PPI-1008]
1.13 nM	GAFFVL (D-residues (Gly achiral), N-ethyl, C-terminal amide) [PPI-969]
0.33 nM	LFFVL (all D-residues, C-terminal methylamide) [PPI-1180]
0.389 nM	GLVFFL (D-residues (Gly achiral), N-ethyl, C-terminal amide) [PPI-1017]
3.4 nM	LVFFL (all D-residues, 1-piperidine-acetyl, C-terminal amide) [PPI-1088]
0.49 nM	GLVFFL (D-residues (Gly achiral), N,N-diethyl, C-terminal amide) [PPI-1028]
0.43 nM	LVFFL (all D-residues, N-propyl, C-terminal amide) [PPI-1025]
0.627 nM and 0.864 nM	LVFFL (all D-residues, N,N-dimethyl, C-terminal amide) [PPI-1007]
2.43 nM	LVFFA (all D-residues, C-terminal isopropylamide) [PPI-992]
2.44 nM	IVFFA (all D-residues, C-terminal amide) [PPI-1039]
0.652 nM	IVFFI (all D-residues, C-terminal amide) [PPI-1038]

Target: Aβ1-40 fibril (Homo sapiens)
Assay: other, fibril binding
Remark: another data set of the same source

Kd	Binder
0.22 nM	LVFFL (all D-residues, p-fluoro-D-Phe at position 4, C-terminal amide) [PPI-1302]
318 nM	LVF (all D-residues, C-terminal NH-NH-acetyl) [PPI-1133]
1.4 nM	LKFVL (all D-residues, C-terminal amide) [PPI-1325]
0.411 nM and 0.534 nM	LVFFL (all D-residues, N-methyl, C-terminal amide) [PPI-1019]
2.4 nM	LFFVL (all D-residues, pentafluoro-D-Phe at positions 2 and 3, C-terminal amide) [PPI-1328]
1.4 nM	LFFVL (all D-residues, pentafluoro-D-Phe at position 3, C-terminal amide) [PPI-1320]
0.82 nM	LFFVL (all D-residues, p-fluoro-D-Phe at positions 2 and 3, C-terminal amide) [PPI-1327]
124 nM	LVF (all D-residues, C-terminal hydrazide) [PPI-1155]
1.27 nM and 1.34 nM	B1
1.1 nM	LVFFL (all D-residues, pentafluoro-D-Phe at position 4, C-terminal amide) [PPI-1303]
